Measured values published in patent US20170196868A1, “METHODS AND COMPOSITIONS FOR TREATMENT OF HER-POSITIVE CANCERS” (UNIVERSITY OF SOUTH CAROLINA, priority 2014, published 2017).

Key:
Assay type in all cases: cell-based
[1] = system: lapatinib-selected SKBR3-LT cells; assay: Sensitivity of lapatinib-selected cells versus parental SKBR3, 7-day treatment; details: single agent, 7 days
Method: To determine if CDK8/19 inhibition has an effect on acquired resistance to HER2-targeted drugs, we selected SKBR3 ER-HER2+ breast cancer cells for lapatinib resistance, through 4-month continuous exposure to 250 nM lapatinib. The parental SKBR3 cells and the lapatinib-selected SKBR3-LT cells were then tested for resistance to HER2-targeted drugs, Senexin B, and their combinations, by plating at 1,500 cells per well in 96-well plates and then treating with Senexin B (0-10 μM), lapatinib (0-1000 nM), trastuzumab biosimilar (0-100 μg/ml) or combinations of Senexin B and lapatinib or Senexin B and trastuzumab biosimilar at a fixed ratio for 7 days.

[2] = system: ER-HER2+ breast cancer cell line JIMT-1; assay: MTT assay for relative cell number, drug combination analysis (CompuSyn CI); details: single agent
Method: (§1) FIG. 1 presents an analysis of the nature of the interaction between CDK8/19 inhibitor Senexin B (a.k.a. SNX2-1-165) developed and owned by Senex Biotechnology, Inc.) and a HER2-specific monoclonal antibody (a biosimilar of trastuzumab from Biocad, Strelna, Russia) in BT474, a ER+HER2+ breast cancer cell line. In these experiments, 2000 cells/well were plated in each well of 96 well plates. After 24 hours, cells were treated with the indicated concentrations of Senexin B (SNXB) or a trastuzumab biosimilar (HER), alone or at a constant fixed ratio of 100 nM SNXB:1 μg/ml HER. Treatment was repeated after 3 days, and the MTT assay for relative cell number was performed after the total of 7 days of treatment. The Combination Index (CI) values were calculated using CompuSyn® (www.combosyn.com), a web tool based on the principles described in Chou (2006). […]
(§2) The same analysis as above was conducted in ER-HER2+ breast cancer cell line HCC-1419 which, despite high levels of HER2, is intrinsically resistant to trastuzumab but sensitive to lapatinib; this pattern of resistance has been associated with activated phosphoinositide 3-kinase/AKT signaling (O'Brien et al., 2010). We also analyzed ER-HER2+ breast cancer cell line JIMT-1, which is intrinsically resistant to both trastuzumab and lapatinib. […]

[3] = system: ER-HER2+ breast cancer cell line HCC-1419; assay: as above; details: single agent
Method: as §1, §2

trastuzumab biosimilar: HER2-specific monoclonal antibody (a biosimilar of trastuzumab from Biocad, Strelna, Russia)
sensitivity of SKBR3-LT relative to SKBR3 [1]: less sensitive
response of cells to drug alone [2]: resistant
response of cells to drug alone [3]: resistant
